This is an account of results in ChEMBL document CHEMBL1158637, “Orally bioavailable dual MMP-1/MMP-14 sparing, MMP-13 selective alpha-sulfone hydroxamates” (Bioorg Med Chem Lett, 2010).

Bounds are passed on as bounds.

As a reminder, the IC50 is the point on the concentration scale where inhibition reaches its midpoint.

Test [1] addresses Matrix metalloproteinase-14 (Homo sapiens, UniProt P50281). Nature of the test: Inhibition of MMP14.
Test [2] addresses Matrix metalloproteinase-9 (Homo sapiens, UniProt P14780). Briefly: Inhibition of MMP9.

Regarding `COc1ccc(N2CCN(c3ccc(S(=O)(=O)C4(C(=O)NO)CCOCC4)cc3)CC2)cc1`, the IC50 in test [1] was > 10000 nM; in test [2], 722 nM.
With `COc1ccc(C2CCN(c3ccc(S(=O)(=O)C4(C(=O)NO)CCOCC4)cc3)CC2)c(C)c1`, the IC50 in test [1] and in test [2] was > 10000 nM throughout.
On to `COc1ccc(C2CCN(c3ccc(S(=O)(=O)C4(C(=O)NO)CCOCC4)cc3)CC2)c(OC)c1`, for which the IC50 in test [1] and in test [2] was > 10000 nM throughout.
For `O=C(NO)C1(S(=O)(=O)c2ccc(N3CCN(c4ccc(C(F)(F)F)cc4)CC3)cc2)CCN(C2CC2)CC1`, the IC50 in test [1] and in test [2] was > 10000 nM each time.
Take `C#CCN1CCC(C(=O)NO)(S(=O)(=O)c2ccc(Sc3ccccc3)cc2)CC1`: the IC50 in test [1] came out at 19 nM.
`O=C(NO)C1(S(=O)(=O)c2ccc(N3CCN(c4ccc(C(F)(F)F)cc4)CC3)cc2)CCOCC1`: the IC50 is > 10000 nM in test [1] and 5000 nM in test [2].
For `O=C(NO)C1(S(=O)(=O)c2ccc(N3CCN(c4ccc(Cl)cc4)CC3)cc2)CCOCC1`, the IC50 in test [1] worked out at 5000 nM; in test [2], 270 nM.
With `COc1ccc(N2CCN(c3ccc(S(=O)(=O)C4(C(=O)NO)CCN(C5CC5)CC4)cc3)CC2)cc1`, the IC50 in test [1] is > 10000 nM; in test [2], 729 nM.
As to `O=C(NO)C1(S(=O)(=O)c2ccc(N3CCC(c4cccc5ccccc45)CC3)cc2)CCOCC1`, the IC50 was > 10000 nM in test [1] and 2500 nM in test [2].
For `Cc1ccccc1N1CCN(c2ccc(S(=O)(=O)C3(C(=O)NO)CCOCC3)cc2)CC1` the same measures were > 10000 nM and 2860 nM.
The matching figures for `O=C(NO)C1(S(=O)(=O)c2ccc(N3CCN(c4ccccc4F)CC3)cc2)CCOCC1`: > 10000 nM and 356 nM.
For `COc1ccccc1C1CCN(c2ccc(S(=O)(=O)C3(C(=O)NO)CCOCC3)cc2)CC1`, the IC50 in test [1] is > 10000 nM; in test [2], 6700 nM.
Regarding `O=C(NO)C1(S(=O)(=O)c2ccc(N3CCN(c4ccccc4Cl)CC3)cc2)CCOCC1`, the IC50 in test [1] was > 10000 nM; in test [2], 2090 nM.
Take `O=C(NO)C1(S(=O)(=O)c2ccc(N3CCC(c4ccccc4O)CC3)cc2)CCOCC1`: the half-maximal inhibitory concentration (IC50) in test [1] and in test [2] was > 10000 nM in each case.
Regarding `O=C(NO)C1(S(=O)(=O)c2ccc(N3CCC(c4ccc(Cl)cc4)CC3)cc2)CCOCC1`, the IC50 is > 10000 nM in test [1] and 350 nM in test [2].
For the molecule `COc1cccc(N2CCN(c3ccc(S(=O)(=O)C4(C(=O)NO)CCOCC4)cc3)CC2)c1`, the IC50 in test [1] came to 2860 nM; in test [2], 163 nM.
The matching figures for `O=C(NO)C1(S(=O)(=O)c2ccc(N3CCN(c4ccccc4)CC3)cc2)CCOCC1`: > 10000 nM and 450 nM.
As to `O=C(NO)C1(S(=O)(=O)c2ccc(N3CCC(c4ccccc4)CC3)cc2)CCOCC1`, the IC50 is > 10000 nM in test [1] and 265 nM in test [2].
With `Cc1ccc(N2CCN(c3ccc(S(=O)(=O)C4(C(=O)NO)CCOCC4)cc3)CC2)cc1`, the concentration for half-maximal inhibition (IC50) in test [1] is 8220 nM; in test [2], 682 nM.
